Earlier results on 1 compound are cited in US12582644B2, “O-GlcNAc transferase inhibitors and uses thereof” (President and Fellows of Harvard College, priority 2018, dated 2026).

For the data set, the target named is T1, OGT (Homo sapiens, UniProt O15294).
T1 sequence (O15294 1-1046): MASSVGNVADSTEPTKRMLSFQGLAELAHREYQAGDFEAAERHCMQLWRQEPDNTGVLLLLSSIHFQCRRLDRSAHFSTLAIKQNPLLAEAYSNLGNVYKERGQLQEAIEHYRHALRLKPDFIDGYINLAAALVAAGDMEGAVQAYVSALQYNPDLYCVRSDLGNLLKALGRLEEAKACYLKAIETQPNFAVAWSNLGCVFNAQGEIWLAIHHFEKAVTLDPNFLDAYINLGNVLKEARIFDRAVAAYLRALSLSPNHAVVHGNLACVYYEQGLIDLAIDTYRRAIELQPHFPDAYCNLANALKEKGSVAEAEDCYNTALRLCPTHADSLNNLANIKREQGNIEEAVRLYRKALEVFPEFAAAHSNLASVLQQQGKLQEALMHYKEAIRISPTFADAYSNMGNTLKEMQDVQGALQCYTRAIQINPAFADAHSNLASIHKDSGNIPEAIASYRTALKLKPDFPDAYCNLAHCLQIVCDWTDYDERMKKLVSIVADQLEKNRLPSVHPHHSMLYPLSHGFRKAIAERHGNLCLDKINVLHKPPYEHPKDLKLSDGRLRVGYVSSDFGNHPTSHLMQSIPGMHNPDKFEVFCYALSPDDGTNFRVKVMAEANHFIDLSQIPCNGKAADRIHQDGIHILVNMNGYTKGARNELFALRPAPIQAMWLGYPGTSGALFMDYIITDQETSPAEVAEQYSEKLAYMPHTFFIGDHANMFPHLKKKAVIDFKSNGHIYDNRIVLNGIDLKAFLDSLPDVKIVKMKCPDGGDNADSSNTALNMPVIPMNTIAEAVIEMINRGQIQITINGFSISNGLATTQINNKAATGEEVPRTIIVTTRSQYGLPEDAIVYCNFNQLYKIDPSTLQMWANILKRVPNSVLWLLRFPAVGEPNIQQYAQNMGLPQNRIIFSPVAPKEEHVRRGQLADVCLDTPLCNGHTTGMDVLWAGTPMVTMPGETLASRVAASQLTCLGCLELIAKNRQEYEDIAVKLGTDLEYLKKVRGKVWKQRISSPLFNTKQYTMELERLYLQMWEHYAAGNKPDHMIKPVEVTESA
The conditions noted are these: SPR, value in parentheses; read-out: Binding affinity (Kd ± s.d.) determined by SPR; cited from earlier work.

With `O=c1ccn([C@@H]2O[C@H](COP(=O)(O)OP(=O)(O)O)[C@@H](O)[C@H]2O)c(=O)[nH]1` [UDP, reference compound], the equilibrium dissociation constant (Kd) (in general, the concentration at which binding is half-saturated) is 0.54 µM.
